The target in assay [1] is RdRp from West Nile Virus (WNV) (West Nile virus, UniProt P06935). Kind of assay: WNV RdRp utilization of ddhCTP versus CTP. The note with it: ddhCTP titrated at different concentrations of CTP. It counts as biochemical.
For assay [2], the target named is Dengue virus (DV) RdRp (Dengue virus type 2, UniProt P29990). Kind of assay: DV RdRp primed-template (primer extension) assay. The class given is biochemical. The following applies: ddhCTP titrated at different concentrations of CTP. From the text:
FIG. 6(A)-6(B): DV RdRp-catalyzed RNA synthesis is inhibited by ddhCTP by a chain termination mechanism. A. Schematic of primer extension assay for evaluating DV RdRp activity. Elongation complexes are first assembled with a trinucleotide primer, 5′-pGGC (SEQ ID NO:1), and 20-nt RNA template (SEQ ID NO:2) in the presence of ATP and GTP to elongate the trinucleotide primer (extended primer; SEQ ID NO:3)) and position the enzyme on the template (SEQ ID NO:2) such that guanosine is in the first templating position (underlined). In the presence of CTP and UTP, DV RdRp catalyzes RNA synthesis to the end of the template (SEQ ID NO:5). […] B. Increasing concentrations of ddhCTP (1, 10, 100 and 300 μM) inhibits DV RdRp-catalyzed RNA synthesis. Reaction products resolved by denaturing PAGE from DV RdRp-catalyzed nucleoside incorporation in the presence of increasing concentrations of either ddhCTP or 3′-dCTP. In the absence of ddhCTP and 3′-dCTP, DV RdRp efficiently catalyzes RNA synthesis to the end of the template creating a 20-nt RNA product (n+5, lanes 2 and 8).
Molecular target for ddhCTP: Viperin is induced by both DNA and RNA viruses (8,44-51). […] To determine if the observations with DV RdRp extend to other supergroups, we evaluated a member of supergroup I. Specifically, the RdRp from human rhinovirus type C (HRV-C) was used, a member of the Picornavirus family. […]

Chains of the proteins cited; added tags and fusions are not shown. Residues count along the entry.
UniProt P06935, 2526-3430: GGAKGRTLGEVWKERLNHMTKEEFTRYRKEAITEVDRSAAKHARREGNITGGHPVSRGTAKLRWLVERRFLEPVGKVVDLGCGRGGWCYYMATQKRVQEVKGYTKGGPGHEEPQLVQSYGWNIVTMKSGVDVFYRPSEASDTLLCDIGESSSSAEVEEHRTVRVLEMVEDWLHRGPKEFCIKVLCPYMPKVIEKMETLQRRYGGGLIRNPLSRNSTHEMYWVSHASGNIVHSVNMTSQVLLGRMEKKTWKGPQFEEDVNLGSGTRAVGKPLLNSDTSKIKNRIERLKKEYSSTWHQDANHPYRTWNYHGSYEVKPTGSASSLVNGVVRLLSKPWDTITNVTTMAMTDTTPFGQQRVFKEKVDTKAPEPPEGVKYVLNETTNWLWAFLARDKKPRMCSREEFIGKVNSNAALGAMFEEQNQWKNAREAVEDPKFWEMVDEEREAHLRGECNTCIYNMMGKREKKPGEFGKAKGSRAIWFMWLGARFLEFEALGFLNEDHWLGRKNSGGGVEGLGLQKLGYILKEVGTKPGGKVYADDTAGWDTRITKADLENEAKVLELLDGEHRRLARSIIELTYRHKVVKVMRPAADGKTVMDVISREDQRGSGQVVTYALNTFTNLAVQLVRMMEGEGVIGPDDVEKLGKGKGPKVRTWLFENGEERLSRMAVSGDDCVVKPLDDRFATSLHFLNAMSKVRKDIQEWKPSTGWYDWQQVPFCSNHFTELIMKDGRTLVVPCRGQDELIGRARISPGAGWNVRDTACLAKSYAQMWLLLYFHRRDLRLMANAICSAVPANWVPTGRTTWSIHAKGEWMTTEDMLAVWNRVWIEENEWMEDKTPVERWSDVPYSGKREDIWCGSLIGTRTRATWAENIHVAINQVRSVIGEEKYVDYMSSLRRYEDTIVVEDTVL

SMILES strings stand for the structures.

Consider `Nc1ccn([C@@H]2OC(COP(=O)(O)OP(=O)(O)OP(=O)(O)O)=C[C@@H]2O)c(=O)n1` (stereo in doubt) [ddhCTP, 3′-deoxy-3′,4′-didehydro-cytidine triphosphate], for which the “difference in utilization of ddhCTP relative to CTP” value worked out at 59 fold in assay [1] and 135 fold in assay [2].
